Patent US20200002670A1, “Generation of Endocrine Progenitor Cells from Human Pluripotent Stem Cells Using Small Molecules” (Novo Nordisk A/S, priority 2013, published 2020)
“And” between values parts separate entries of the source, which are not always exact repeats. Equal values may be shown once.

Test system: pancreatic endoderm cells
Test: NGN3/NKX2.2 double positive cells by immunostaining and InCell imaging after PE to EP differentiation
Format: cell-based, human
Description: After three days of EP differentiation, at EP day 4, media were aspirated followed by fixation of the cells at room temperature for 30 min with 4% paraformaldehyde (VWR, 97.131.000). Cells were washed with PBS and permeabilized with 0.5% Triton X-100 (Sigma, 9002-93-1) for 10 min, washed and blocked in 0.5% TNB-buffer (Perkin Elmer) for 30 min at room temperature. Primary antibodies, sheep anti-NGN3 (R&D systems #AF3444) and rabbit anti-NKX2.2 (Sigma #HPA003468) were diluted 1:1000 and 1:500, respectively, in 0.1% Triton X-100 in PBS and added to each well for overnight incubation at 4° C. Cells were washed three times with PBS. […] The total cell number based in the DAPI counterstaining and the number of NGN3/NKX2.2 double positive cells was determined using InCell Developer Toolbox 1.8 (GE Healthcare). The fraction of NGN3/NKX2.2 double positive cells were quantified using the InCell developer toolbox software (GE Healthcare) and normalized to the combined protocol K&N (example 2) on each plate and the % effect was calculated (% effect NGN3/NKX2.2 double positive=((S−Sneg)/(|Spos−Sneg|))*100). […]
Imaging was performed using the InCell Analyzer 2000 (GE Healthcare). […] The total cell number based in the DAPI counterstaining and the number of NGN3/NKX2,2 double positive cells was determined using InCell Developer Toolbox 1.8 (GE Healthcare). […]

O=[N+]([O-])c1ccc(-c2nc(-c3ccc(F)cc3)c(-c3ccncc3)[nH]2)cc1 [PD169316]
% effect NGN3/NKX2.2 double positive cells: 154% and 152%
